Experimental data reported in patent US20070202116A1, “Treatment of micro-organism infection” (priority 2001, published 2007).

System: EMRSA-15
Assay type: in vivo, S. aureus
Settings: Group 3: Vancomycin 6 mg/kg alone iv; 48 hours
Protocol: Methods: 60 female CD-1 mice (22-24 g) were given 1×10^7 cfu of EMRSA-15 as a 100 μl iv bolus.
All mice were terminated at 48 hours for culture of kidney, liver and spleen.
Results: expressed as log cfu per gram of tissue, unless the majority of mice (>5) were cleared (ie organs were culture-negative). N/A=not applicable. (Table 7)

Structure (SMILES): CN[C@H](CC(C)C)C(=O)N[C@H]1C(=O)N[C@@H](CC(N)=O)C(=O)N[C@H]2C(=O)N[C@H]3C(=O)N[C@H](C(=O)N[C@H](C(=O)O)c4cc(O)cc(O)c4-c4cc3ccc4O)[C@H](O)c3ccc(c(Cl)c3)Oc3cc2cc(c3O[C@@H]2O[C@H](CO)[C@@H](O)[C@H](O)[C@H]2O[C@H]2C[C@](C)(N)[C@H](O)[C@H](C)O2)Oc2ccc(cc2Cl)[C@H]1O [Vancomycin, vancomycin]
- Spleen Log cfu/g of tissue: 3.63 ± 0.91 Log cfu/g of tissue
